From patent US8193369B2, “Benzimidazole cannabinoid agonists” (Janssen Pharmaceutica NV, priority 2007, dated 2012)

Sequences of proteins named here, by UniProt entry; tags and fusion partners are left off.
UniProt P34972, whole entry: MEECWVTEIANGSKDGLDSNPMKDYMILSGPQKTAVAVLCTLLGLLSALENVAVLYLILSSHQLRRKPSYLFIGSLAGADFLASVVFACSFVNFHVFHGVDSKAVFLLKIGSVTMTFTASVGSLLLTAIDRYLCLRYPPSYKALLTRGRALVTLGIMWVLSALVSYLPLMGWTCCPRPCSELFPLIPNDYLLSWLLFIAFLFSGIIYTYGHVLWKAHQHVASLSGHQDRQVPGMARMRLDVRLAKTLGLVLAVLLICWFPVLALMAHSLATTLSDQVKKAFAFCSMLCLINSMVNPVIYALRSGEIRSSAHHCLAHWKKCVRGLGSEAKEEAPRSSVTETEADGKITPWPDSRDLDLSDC

Target: human CB2 (hCB2) receptor (Homo sapiens, UniProt P34972)
Assay: Inhibition of forskolin-activated cAMP production upon activation of human CB2 receptor (HTRF)
Type: cell-based
Conditions: CHO-K1 cells stably transfected with hCB2; 15 μM forskolin; pEC50=-log(EC50); relative to WIN55212-2
Procedure: D. Pharmacological Examples D.1 Inhibition of cAMP in Response to Activation of the Human CB2 Receptors
Functional activity of the test compounds was assessed by measuring their potency to inhibit forskolin-activated cAMP production upon activation of human CB2 (hCB2) receptor through homogenous time resolved fluorescence (HTRF) assays.
CHO-K1 cells stably transfected with hCB2 were grown up to 80-90% confluence in T175 Falcon flasks in DMEM/NUT MIX F-12 culture medium complemented with 2% Solution A (5.10^6 IU/l penicillin G, 5 g/l streptomycin sulphate, 5.5 g/l pyruvate, 14.6 g/l L-glutamine, 1M NaOH) and 10% foetal calf serum. Before the experiments, medium was removed, cells were washed with PBS/EDTA (140 mM NaCl, 1 mM Na2-EDTA, 8 mM Na2HPO4.2H2O, 8.5 mM KH2PO4, 2.7 mM KCl, 21 mM glucose), resuspended in stimulation buffer (HBSS 1×, IBMX 1 mM, Hepes 5 mM, MgCl2 10 mM, BSA 0.1%, pH 7.4). Cells were diluted to a concentration of 10^6 cells/ml for hCB2 experiments. Assays were performed using the cAMP Dynamic HTRF kit (CIS bio international, France) according to the recommendations of the manufacturer. […]
After equilibration of the reaction mixtures for 1 to 24 hours in dark at room temperature, fluorescence was measured at 665 nm and 620 nm using a Discovery microplate fluorescence counter (Perkin Elmer), and the signal ratio of 665 nm/620 nm was calculated. […]

## CC(=O)N1CCC(Cn2c(C(C)(C)C)nc3cc(SCC4CC4)ccc32)CC1
  CB2 pEC50: 8.68
